Laboratory results from ChEMBL document CHEMBL3232862, “Optimization of chemical functionalities of indole-2-carboxamides to improve allosteric parameters for the cannabinoid receptor 1 (CB1)” (J Med Chem, 2014).

Chains of the proteins cited; added tags and fusions are not shown.
UniProt P21554, whole entry: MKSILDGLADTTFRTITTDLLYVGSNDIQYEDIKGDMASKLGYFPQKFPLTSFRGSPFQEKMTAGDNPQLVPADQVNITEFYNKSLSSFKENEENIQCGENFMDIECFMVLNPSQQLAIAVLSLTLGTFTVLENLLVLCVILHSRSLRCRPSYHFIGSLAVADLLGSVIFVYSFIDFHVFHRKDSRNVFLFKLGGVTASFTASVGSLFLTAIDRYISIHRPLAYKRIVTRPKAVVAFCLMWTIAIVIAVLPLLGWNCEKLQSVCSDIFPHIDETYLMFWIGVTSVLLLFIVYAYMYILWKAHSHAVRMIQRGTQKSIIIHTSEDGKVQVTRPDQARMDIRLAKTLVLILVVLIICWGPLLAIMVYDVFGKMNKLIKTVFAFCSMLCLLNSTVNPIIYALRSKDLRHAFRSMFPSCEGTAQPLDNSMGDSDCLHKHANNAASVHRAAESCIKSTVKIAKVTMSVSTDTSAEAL

What was measured:
[1] = biological target: Cannabinoid receptor 1 (Homo sapiens) (UniProt P21554); assay: Positive allosteric modulation of cannabinoid CB1 receptor (unknown origin) expressed in HEK293 cells assessed as induction of ERK1/2 phosphorylation by Western blot analysis in absence of siRNA targeting beta-arrestin 1; type: cell-based
Procedure, shortened: (§1)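 HEK293 cells were lipofectamine-transfected with CB1, with or without β-arrestin 1 siRNA (2.6 μg) or a nonsilencing control. After 24 h they were serum-starved for 18 h, with optional PTX at 5 ng/mL for 16 h at 37 °C. Cells were exposed 5 min to modulator (0–10 μM) plus 0.2 μM CP55,940 and lysed. 12 μg protein was run on 10% SDS-PAGE and immunoblotted for phospho-p44/42 and total p44/42.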

[2] = biological target: Cannabinoid receptor 1 (Homo sapiens) (UniProt P21554); assay: Positive allosteric modulation of cannabinoid CB1 receptor (unknown origin) expressed in HEK293 cells assessed as induction of ERK1/2 phosphorylation by Western blot analysis in presence of siRNA targeting beta-arrestin 1; type: cell-based; procedure, shortened: as §1

Q: Which inhibition [1] does the source give for `CCCCCc1c(C(=O)NCCc2ccc(N3CCCCC3)cc2)[nH]c2ccc(Cl)cc12` here?
A: The inhibition was “Dose-dependent effect”.

Q: What about the inhibition [2] of the same compound?
A: The inhibition was “inactive”.

Calls of active or inactive are those of the source. The rule behind the calls is not given here.
